## Antibody variant affinities, Ab-95 light chain, assay 2

Target: peptide PDVDLGDISGINAS, taken from heptad repeat 2 (HR2) of SARS-CoV-2 spike.

Ab-95 is the parent antibody, in scFv form: VH, then a 15-residue (Gly4Ser)3 linker, then VL. The heavy chain is unchanged in all variants.
VH: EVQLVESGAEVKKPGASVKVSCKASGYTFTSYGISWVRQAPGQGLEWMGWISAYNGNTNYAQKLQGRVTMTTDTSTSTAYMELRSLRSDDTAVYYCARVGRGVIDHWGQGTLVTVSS
VL: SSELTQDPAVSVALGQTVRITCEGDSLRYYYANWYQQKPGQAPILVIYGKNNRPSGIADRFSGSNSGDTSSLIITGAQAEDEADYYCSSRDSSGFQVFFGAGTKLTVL

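Variants in AAYL52 differ from the parent at up to three CDR positions; double and triple changes were sampled at random. In AlphaSeq, yeast of one mating type display the scFv and yeast of the other type display the target. Binding brings cells together so that they mate, and sequencing counts the barcode pairs among the diploids. Scores were corrected for input abundance and mapped to Kd with protein pairs of known affinity run in the same pool. There are three technical replicates.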

Variants are written as CDR1, CDR2 and CDR3 of the light chain (limits as in the source). Parent: EGDSLRYYYAN, GKNNRPS, SSRDSSGFQVF. Affinities are written as log10 Kd with Kd in nM; a lower number is a better binder. Averages over replicates are reported, and they cover detected replicates only. A pair that was not seen in any replicate is written "nd"; this usually means weak binding, but a binder can also be missed. Background: pairings of library AAYL52 with three empty control strains gave a value in 28% of cases (median 3.91, 5th percentile 2.90). Values in that range, when seen in few replicates, are hard to tell from nonspecific mating.

| # | mean log10 Kd (nM) | detected | CDR-L1 | CDR-L2 | CDR-L3 |
|---|---|---|---|---|---|
| 1 | 2.43 | 3 of 3 | EGDSLRYYYAN | GKNNRLS | SSRDSSGFRDF |
| 2 | nd | 0 of 3 | EGDSLRYKYMN | GKNNRPS | SSRISSGFQVF |
| 3 | 4.01 | 1 of 3 | EGDSKRYYYAN | GKNNRPS | SSADSSGFQVF |
| 4 | nd | 0 of 3 | EGDSLIYYYNN | GKNNRPS | SSRDSSGFQVK |
| 5 | 3.58 | 2 of 3 | EGDSLRYYYAN | GKPHMPS | SSRDSSGFQVF |
| 6 | 5.28 | 1 of 3 | EIDSLRYYYAN | GKNNRPL | SSRDSSGFQVI |
| 7 | 3.30 | 3 of 3 | EGDSLRYYYCN | GKNNRPS | SSRDSEGFEVF |
| 8 | 3.68 | 3 of 3 | EGDSLRYYYAC | GKNNRPH | SSRDSSGFQVF |
| 9 | 2.83 | 3 of 3 | EPDSLRWYYAN | GKNNRPS | SSRMSSGFQVF |
| 10 | 4.49 | 2 of 3 | EGDSLRYYYMN | GKNTRPS | SSRDSSGFQVF |
| 11 | nd | 0 of 3 | EGDSLRYYYAN | GKNFRPS | DSRDSSGNQVF |
| 12 | 3.23 | 1 of 3 | EGDSLKYLYAN | GKNNRPS | SSVDSSGFQVF |
| 13 | 3.22 | 3 of 3 | EGQSLRYYYAN | GKNNRPS | SSRDSSWFQVF |
| 14 | 4.09 | 2 of 3 | EGDSLRYYYAP | GKNNAPS | PSRDSSGFQVF |
| 15 | 4.75 | 1 of 3 | EGDSLRYYYAN | GKNNRPS | SSRDSSGFWHN |
| 16 | 4.19 | 2 of 3 | EGDSDRCYYAN | GKNNRPS | SIRDSSGFQVF |
| 17 | nd | 0 of 3 | EGDSLRYYYAN | GKNNRPS | SSKDSSGFQIF |
| 18 | 2.89 | 3 of 3 | ESDIQRYYYAN | GKNNRPS | SSRDSSGFQVF |
| 19 | 2.88 | 3 of 3 | EGDSLRYYYAN | GKNNRPS | SDRDSSPDQVF |
| 20 | 3.92 | 2 of 3 | EGDSLRYYKLN | GKNNRPS | SSRWSSGFQVF |
| 21 | 3.32 | 2 of 3 | ECDSLRYYYAN | GKNLRPS | LSRDSSGFQVF |
| 22 | 5.62 | 1 of 3 | EGDSLRYYYAW | GSNNRPC | SSRDSSGFQVF |
| 23 | nd | 0 of 3 | EGDSLRYYYAN | GKINNPS | SSRDSSGFQVK |
| 24 | nd | 0 of 3 | EGYSLRYYYFN | FKNNRPS | SSRDSSGFQVF |
| 25 | 3.76 | 1 of 3 | EGLSLRYYYAI | GKNNRPS | SSHDSSGFQVF |
| 26 | 5.60 | 1 of 3 | EGSSLRYYYAN | GKNNRPS | MSLDSSGFQVF |
| 27 | nd | 0 of 3 | GGDSLRYYYAN | FKNNRPS | SSRDSTGFQVF |
| 28 | 2.04 | 3 of 3 | EGDSLRYYDAN | GKANLPS | SSRDSSGFQVF |
| 29 | nd | 0 of 3 | EGNSWRYYYAN | QKNNRPS | SSRDSSGFQVF |
| 30 | 2.28 | 1 of 3 | EGDSLRYYYAN | GCNNRPS | SSRCSSGFFVF |
| 31 | 3.40 | 1 of 3 | EGESLRYYYAN | RKNNRPS | SMRDSSGFQVF |
| 32 | 5.23 | 2 of 3 | EGDSLRYYYCL | GKNNRPS | SSRDSSGFQVC |
| 33 | 4.81 | 1 of 3 | EGDSLRYYQAF | GKNNRPS | SSRDSSGFQVF |
| 34 | 4.48 | 3 of 3 | PGDSLRYVYAN | GKNNRPS | SSRDSSGFQMF |
| 35 | 4.45 | 3 of 3 | EGDSLKYYYAN | FKNNRPS | SSRDHSGFQVF |
| 36 | 2.36 | 3 of 3 | EGDSLRHYAAN | GKNNRPS | SSRDSSGFQSF |
| 37 | nd | 0 of 3 | EGDSLRYYYAN | GKNRRPS | SWRDSSGFQIF |
| 38 | 4.28 | 1 of 3 | EGCSPRYYYAN | GKNNDPS | SSRDSSGFQVF |
| 39 | 5.07 | 1 of 3 | EGDSLRYYYGN | GKNNDPS | DSRDSSGFQVF |
| 40 | 3.87 | 2 of 3 | EGDSLRYYYAN | GKDNPPS | SSRDSSGFQVF |
| 41 | nd | 0 of 3 | EGNSLRYYYFN | GKNNRPS | SSRDSSGFQVF |
| 42 | nd | 0 of 3 | EGDSLQYYYAY | GRNNRPS | SSRDSSGFQVF |
| 43 | 5.28 | 1 of 3 | EGDSLRYYHYN | GKNNDPS | SSRDSSGFQVF |
| 44 | 3.17 | 3 of 3 | EGDSLRYYYAN | GKNNRCS | SLRDSSGFQLF |
| 45 | 3.23 | 2 of 3 | EGDSLRYYYAN | GKNNRPL | SSRDSSMFQVF |
| 46 | nd | 0 of 3 | EGLSLRYYYAN | PKNNRPS | SSRDSSGFQRF |
| 47 | 2.30 | 3 of 3 | EGDSLRYYYAN | GKNERPS | SSNDSSAFQVF |
| 48 | 2.71 | 1 of 3 | EGDSLRYKYAN | GKNNRTS | SSRDSSGFQWF |
| 49 | nd | 0 of 3 | EGDSLRYYYAN | MKNNRPS | VSRDSSGPQVF |
| 50 | nd | 0 of 3 | EGDSLRYYYAN | RKRNRPS | SSRDSVGFQVF |
| 51 | 4.21 | 2 of 3 | EGSLLRYYYAN | GKNNRPS | QSRDSSGFQVF |
| 52 | 3.50 | 1 of 3 | EGDSLKYYYHN | GKNNRPT | SSRDSSGFQVF |
| 53 | 4.22 | 2 of 3 | EGDSLRYWYAN | GKANRPS | SSRLSSGFQVF |
| 54 | 2.90 | 1 of 3 | EGDSLRCYYAN | PKNNRPS | SSRDSSGFGVF |
| 55 | 2.49 | 3 of 3 | QTDSLRYYHAN | GKNNRPS | SSRDSSGFQVF |
| 56 | 3.23 | 3 of 3 | EGDSLVYYYAN | SGNNRPS | SSRDSSGFQVF |
| 57 | 2.35 | 3 of 3 | EGDSLRYRYAN | GKNNRPS | SSRDSVGFQVA |
| 58 | 4.38 | 3 of 3 | EGDSLRVYYAM | GKNNRPS | SSRDSSGFQVF |
| 59 | 4.44 | 1 of 3 | EGDLLRYYQAN | GKNNRPS | SSRDSSGIQVF |
| 60 | 4.18 | 1 of 3 | EGFSLRYYYAN | GKNNRAS | SSRDSSGFQGF |
| 61 | 2.71 | 3 of 3 | EGDSLRYYYAN | GKNNRPS | SSRDSRAFQVF |
| 62 | 3.02 | 3 of 3 | EGDSLRYYSAN | GKNNEPS | HSRDSSGFQVF |
| 63 | 4.14 | 2 of 3 | EGDSLRYYYAN | GKNLRPL | SSRDSSGFIVF |
| 64 | 3.60 | 2 of 3 | EGDSLRYYYAT | GKINRPS | SSRDSSGFQVF |
| 65 | 3.25 | 1 of 3 | EGDYLRYYYAP | GKNNRPS | SSRDSSQFQVF |
| 66 | 4.00 | 2 of 3 | EGPSLRYYYAN | YKNNRPS | SSRDSSGFQVC |
| 67 | 3.36 | 2 of 3 | EGDSLRYYYAN | GKNNRYN | SSRDSSGFQVR |
| 68 | 4.61 | 3 of 3 | EGDSLRYYYAY | GKNNRPS | SSRDTSGVQVF |
| 69 | 2.62 | 3 of 3 | DGTSLRQYYAN | GKNNRPS | SSRDSSGFQVF |
| 70 | nd | 0 of 3 | YGDSLRYYYAN | GDNNRPS | SSRDSCGFQVF |
| 71 | 4.04 | 1 of 3 | EGDSLRYYYAN | GKNPRPS | SSRDSKGFQVF |
| 72 | 3.80 | 1 of 3 | EGDSLREYYAN | GKQNRPS | SSRKSSGFQVF |

Top 4 of the variants detected in all replicates, tightest first:

| CDR-L1 | CDR-L2 | CDR-L3 | mean log10 Kd (nM) | detected |
|---|---|---|---|---|
| EGDSLRYYDAN | GKANLPS | SSRDSSGFQVF | 2.04 | 3 of 3 |
| EGDSLRYYYAN | GKNERPS | SSNDSSAFQVF | 2.30 | 3 of 3 |
| EGDSLRYRYAN | GKNNRPS | SSRDSVGFQVA | 2.35 | 3 of 3 |
| EGDSLRHYAAN | GKNNRPS | SSRDSSGFQSF | 2.36 | 3 of 3 |

Data: MIT Lincoln Laboratory AlphaSeq set, Engelhart et al. 2022, doi:10.1038/s41597-022-01779-4, as distributed in FLAb.